For this experiment, the target named is KRAS^G12C (Homo sapiens, UniProt P01116, G12C). In words: LC-MS occupancy measurements (KI and kinact determination). In kind it is binding. The settings on record: for kinact: fit of kobs vs concentration, MS occupancy, mean ± SD, n = 2.

This is an account of results in paper PMC11334105, “Contribution of Noncovalent Recognition and Reactivity to the Optimization of Covalent Inhibitors: A Case Study on KRas^G12C” (ACS Chemical Biology, 2024).

Molecules are shown by their SMILES.

In the case of `O=C(C1CN1)N1CCN(c2ncnc3cc(-c4c(O)cccc4F)c(Cl)cc23)CC1` (stereo not shown) [4a, Aziridin-2-yl(4-(6-chloro-7-(2-fluoro-6-hydroxyphenyl)quinazolin-4-yl)piperazin-1-yl)methanone], the inactivation efficiency (kinact/KI) – broadly, the maximal inactivation rate divided by the concentration that gives half of it – came to 4.1 ± 0.3 M⁻¹ s⁻¹ and the kinact was 0.091 ± 0.002 0.001 s^–1.

For the molecule `CN1CCCC1COc1nc(N2CCN(C(=O)C3CN3)CC2)c2cc(Cl)c(-c3c(O)cccc3F)cc2n1` (stereo not shown) [4b, Aziridin-2-yl(4-(6-chloro-7-(2-fluoro-6-hydroxyphenyl)-2-((1-methylpyrrolidin-2-yl)methoxy)quinazolin-4-yl)piperazin-1-yl)methanone], the kinact/KI turned out to be 15.2 ± 4.9 M⁻¹ s⁻¹ and the kinact is listed as 1.7 ± 0.30 0.001 s^–1.
